These are literature values, as cited in patent publication US20040228921A1, “Compositions and methods for delivery of therapeutic agents” (priority 2003, published 2004).

Values after ≈ are worked out from the molar mass of the structure shown. Some compounds may have been tested in ways that are not shown here.

One may read the Solubility as the concentration that dissolves in the medium under given conditions.

The conditions of the data set: printed as 1000 mg/40 mL=25 mg/mL; solvent not stated.

Take `CCC(=O)N(c1ccccc1)C1CCN(CCc2ccccc2)CC1`: the Solubility was 25 mg/mL (≈ 74.3 mM).
